Measured affinities in a library of Ab-95 light chain variants

Target peptide (SARS-CoV-2 spike, HR2 region): PDVDLGDISGINAS

Parent: Ab-95, a human scFv built as VH, a (GGGGS)3 linker, VL. Only the CDRs of the light chain vary.
VH: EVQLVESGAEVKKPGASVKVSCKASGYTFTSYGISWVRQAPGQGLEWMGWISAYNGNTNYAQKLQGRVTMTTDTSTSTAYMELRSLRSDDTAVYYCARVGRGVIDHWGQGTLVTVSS
VL: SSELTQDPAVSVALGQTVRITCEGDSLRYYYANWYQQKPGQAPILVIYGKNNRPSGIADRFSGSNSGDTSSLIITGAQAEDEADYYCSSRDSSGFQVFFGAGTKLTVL

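Phage display of a naive human antibody library on the peptide gave the parent. The library (AAYL52) carries one to three amino acid substitutions per variant, with no insertions or deletions. The scFvs were displayed on barcoded MATa yeast, the peptide on MATalpha yeast. Pairs that bind mate more often; barcode pairs of the diploids are counted by sequencing. A regression on co-assayed BCL2-family reference pairs converts the normalised counts of each replicate to an apparent Kd. Mating was done three times.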

Changes read parent residue, position, new residue, counted from the first residue of the VL shown.
Every variant below is changed at R53 of the VL (sequential numbering).
Values are apparent Kd, the geometric mean of the replicates that gave a signal; lower means stronger binding.
An entry "nd" has no value in the source: the pair was not observed among the diploids in any replicate. This suggests poor binding but is not conclusive.
Nonspecific signal, from three strains lacking the peptide, appeared in 28% of pairings of library AAYL52, centred on 8.2 µM (5% of these signals below 800 nM); values are not corrected for it.

The variant N51Y+R53W+S88M showed nd (0 of 3 replicates).
The variant S26K+Y31C+R53G showed 850 nM (2 of 3 replicates).
The variant N51H+R53K+G94A showed 8.7 µM (2 of 3 replicates).
The variant R53D+S55V showed 6.1 µM (3 of 3 replicates).
The variant Y31S+A32D+R53F showed 2.6 µM (1 of 3 replicates).
The variant N33F+R53D+S55Q showed 19 µM (2 of 3 replicates).
The variant A32F+R53Y+V97T showed 14 µM (1 of 3 replicates).
The variant D25P+N51L+R53E showed 19 µM (2 of 3 replicates).
The variant Y31H+R53C+S93P showed 8.1 µM (3 of 3 replicates).
The variant D25S+K50H+R53S showed 1.3 µM (3 of 3 replicates).
The variant E23K+Y29L+R53C showed 4.7 µM (2 of 3 replicates).
The variant L27W+G49T+R53W showed 3.9 µM (1 of 3 replicates).
The variant L27Q+R53E+F95C showed 88 µM (2 of 3 replicates).
The variant A32P+N51C+R53A showed 61 µM (1 of 3 replicates).
The variant Y30N+R53Q+Q96S showed 5.3 nM (3 of 3 replicates).
The variant G24I+A32Y+R53C showed 170 µM (2 of 3 replicates).
The variant N51M+R53S+F95P showed 63 µM (2 of 3 replicates).
The variant N52E+R53T+S92M showed 780 nM (3 of 3 replicates).
The variant E23Y+R53W+G94S showed 41 µM (2 of 3 replicates).
The variant D25Q+N51Y+R53N showed 6.5 µM (3 of 3 replicates).
The variant R53K+S55H showed 140 nM (3 of 3 replicates).
The variant N52L+R53I+Q96T showed 13 µM (1 of 3 replicates).
The variant N51Q+R53N+G94V showed 19 µM (2 of 3 replicates).
The variant L27T+R28D+R53C showed 1.6 µM (1 of 3 replicates).
The variant R53L+S89R+V97D showed 50 µM (1 of 3 replicates).
The variant S26W+R28M+R53D showed 8.9 µM (2 of 3 replicates).
The variant R53G+D91F+F95Y showed 99 µM (2 of 3 replicates).
The variant N51I+R53N+F98K showed nd (0 of 3 replicates).
The variant S26T+Y30C+R53L showed 2.8 µM (1 of 3 replicates).
The variant E23S+R53I+F98I showed nd (0 of 3 replicates).
The variant L27P+Y30W+R53M showed 59 µM (2 of 3 replicates).
The variant S26F+R53N+V97M showed 3.3 µM (1 of 3 replicates).
The variant E23S+R53H+R90C showed 1.3 µM (2 of 3 replicates).
The variant L27R+A32E+R53T showed 20 µM (1 of 3 replicates).
The variant Y31K+R53D+S55A showed 1.2 µM (3 of 3 replicates).
The variant R53Q showed 1.8 µM (3 of 3 replicates).

For reference, 6 entries of the list once more:

| changes | apparent Kd | seen in |
|---|---|---|
| E23K+Y29L+R53C | 4.7 µM | 2 of 3 |
| Y31S+A32D+R53F | 2.6 µM | 1 of 3 |
| D25P+N51L+R53E | 19 µM | 2 of 3 |
| Y31K+R53D+S55A | 1.2 µM | 3 of 3 |
| S26K+Y31C+R53G | 850 nM | 2 of 3 |
| S26T+Y30C+R53L | 2.8 µM | 1 of 3 |

The measurements come from Engelhart et al. 2022 (doi:10.1038/s41597-022-01779-4) through the FLAb antibody collection.